According to paper PMC10354055, “An optimized Nurr1 agonist provides disease-modifying effects in Parkinson’s disease models” (Nature Communications, 2023):

Tested on: MPTP-induced male mice
Assay: Rotarod, sub-chronic MPTP-induced PD model mice
Type: in vivo, mouse
Settings: Figure 4b, individual animal values
Procedure: MPTP (Sigma-Aldrich) was intraperitoneally (i.p.) injected (30 mg/kg) for 5 days (Day 1-5). […] To test dyskinetic involuntary behavior, an L-DOPA injected group was included, which received 50 mg/kg of L-DOPA and 15 mg/kg of benserazide (Sigma-Aldrich) (i.p.) for 16 days (Day 1–16). All compounds were administered 6 h post-MPTP injection to avoid any effect of compounds on the MPTP metabolism in the brain. Motor and non-motor related behavior tests were performed on the following days as described in Fig. 4a in an assessor- and observer-blinded fashion. Pre-training and baseline setup for motor-related behaviors were performed 3 days prior to the injections. Mice were sacrificed and subjected to immunohistochemistry. Mice were housed at the Animal Care Facilities of McLean Hospital under a 12-h light/12-h dark cycle, ambient temperature and humidity. Animals were handled in accordance with McLean Hospital’s Institutional Animal Care and Use Committee (Protocol #: 2015N000002) and followed National Institutes of Health guidelines.
Mice were pre-trained on an automated 5-lane rotarod unit (10 rpm, 3 min) for 2 days and the baseline was measured (10 rpm, 90 sec) before the rotarod test (3 days before the MPTP injection or the first rotarod test at week 2). […] Time on the rotating rod was measured automatically by placing a trip switch under the floor beneath the rotating drum.

CCN(CC)CCCC(C)Nc1ccnc2cc(Cl)ccc12 (stereo not shown) [CQ, chloroquine]
Latency to fall: 114.8 s
